The chains behind the UniProt entries cited, without tags or fusion partners. A line that says so, or that is headed by a name, gives the form on record, which may keep a tag or linker.
UniProt Q9BUB5, other isoform, or with tags, fused parts or gaps T344D: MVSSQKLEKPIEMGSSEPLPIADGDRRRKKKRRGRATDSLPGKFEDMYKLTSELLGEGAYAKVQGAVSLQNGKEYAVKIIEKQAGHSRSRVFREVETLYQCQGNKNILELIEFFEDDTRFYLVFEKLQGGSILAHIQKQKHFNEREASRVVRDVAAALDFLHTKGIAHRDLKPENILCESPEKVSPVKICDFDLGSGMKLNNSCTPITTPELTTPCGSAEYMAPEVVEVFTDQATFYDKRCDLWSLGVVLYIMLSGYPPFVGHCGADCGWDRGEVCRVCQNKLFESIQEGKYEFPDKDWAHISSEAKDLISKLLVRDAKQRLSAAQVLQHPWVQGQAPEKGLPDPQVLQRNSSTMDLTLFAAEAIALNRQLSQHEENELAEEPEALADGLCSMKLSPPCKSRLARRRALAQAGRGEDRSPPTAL

According to patent US9777004B2, “Amino-substituted imidazopyridazines” (Bayer Intellectual Property GmbH, priority 2012, dated 2017):

Key:
[1] = biological target: T1, human full-length MKNK1 (Homo sapiens (Human), UniProt Q9BUB5, T344D); assay: MKNK1 kinase high ATP assay (TR-FRET); format: biochemical; settings: 2 mM ATP, 15 min preincubation
Procedure: MKNK1 Kinase High ATP Assay
MKNK1-inhibitory activity at high ATP of compounds of the present invention after their preincubation with MKNK1 was quantified employing the TR-FRET-based MKNK1 high ATP assay as described in the following paragraphs.
As substrate for the kinase reaction the biotinylated peptide biotin-Ahx-[…] (C-terminus in amide form) was used, which can be purchased e.g. from the company Biosyntan (Berlin-Buch, Germany).
(§1) For the assay 50 nL of a 100fold concentrated solution of the test compound in DMSO was pipetted into a black low volume 384well microtiter plate (Greiner Bio-One, Frickenhausen, Germany), 2 μL of a solution of MKNK1 in aqueous assay buffer [50 mM HEPES pH 7.5, 5 mM magnesium chloride, 1.0 mM dithiothreitol, 0.005% (v/v) Nonidet-P40 (Sigma)] was added and the mixture was incubated for 15 min at 22° C. to allow pre-binding of the test compounds to the enzyme before the start of the kinase reaction. Then the kinase reaction was started by the addition of 3 μL of a solution of adenosine-tri-phosphate (ATP, 3.3 mM=>final conc. in the 5 μL assay volume is 2 mM) and substrate (0.1 μM=>final conc. in the 5 μL assay volume is 0.06 μM) in assay buffer and the resulting mixture was incubated for a reaction time of 30 min at 22° C. The concentration of MKNK1 was adjusted depending of the activity of the enzyme lot and was chosen appropriate to have the assay in the linear range, typical concentrations were in the range of 0.003 μg/mL. The reaction was stopped by the addition of 5 μL of a solution of TR-FRET detection reagents (5 nM streptavidine-XL665 [Cisbio Bioassays, Codolet, France] and 1 nM anti-ribosomal protein S6 (pSer236)-antibody from Invitrogen [#44921G] and 1 nM LANCE EU-W1024 labeled ProteinG [Perkin-Elmer, product no. AD0071]) in an aqueous EDTA-solution (100 mM EDTA, 0.1% (w/v) bovine serum albumin in 50 mM HEPES pH 7.5).
(§2) The resulting mixture was incubated for 1 h at 22° C. to allow the formation of complex between the phosphorylated biotinylated peptide and the detection reagents. Subsequently the amount of phosphorylated substrate was evaluated by measurement of the resonance energy transfer from the Eu-chelate to the streptavidine-XL. Therefore, the fluorescence emissions at 620 nm and 665 nm after excitation at 350 nm were measured in a TR-FRET reader, e.g. a Rubystar (BMG Labtechnologies, Offenburg, Germany) or a Viewlux (Perkin-Elmer). The ratio of the emissions at 665 nm and at 622 nm was taken as the measure for the amount of phosphorylated substrate.

[2] = biological target: T1, human full-length MKNK1; assay: MKNK1 kinase assay (TR-FRET); format: biochemical; settings: 10 μM ATP, 15 min preincubation
Procedure: MKNK1-inhibitory activity of compounds of the present invention was quantified employing the MKNK1 TR-FRET assay as described in the following paragraphs.
As substrate for the kinase reaction the biotinylated peptide biotin-Ahx-[…] (C-terminus in amide form) was used which can be purchased e.g. form the company Biosyntan (Berlin-Buch, Germany).
as §1, with “16.7 μM=>final” for “3.3 mM=>final”, “10 μM)” for “2 mM)”, “45” for “30”, “0.05” for “0.003”
as §2

c1ccc2oc(-c3cnc4ccc(OC[C@H]5CNCCO5)nn34)cc2c1 [Example 7, 3-(1-Benzofuran-2-yl)-6-[(2R)-morpholin-2-ylmethoxy]imidazo[1,2-b]pyridazine]
IC50 [1]: 19 nM

c1ccc2oc(-c3cnc4ccc(O[C@@H]5CCCNC5)nn34)cc2c1 [Example 32, 3-(1-Benzofuran-2-yl)-6-[(3R)-piperidin-3-yloxy]imidazo[1,2-b]pyridazine]
IC50 [2]: 28 nM
IC50 [1]: 53 nM

c1ccc2oc(-c3cnc4ccc(OCC5CNCCO5)nn34)cc2c1 (stereo not drawn) [Example 3, 3-(1-Benzofuran-2-yl)-6-(morpholin-2-ylmethoxy)imidazo[1,2-b]pyridazine]
IC50 [2]: 4 nM
IC50 [1]: 12 nM

c1ccc2oc(-c3cnc4ccc(OCC[C@@H]5COCCN5)nn34)cc2c1 [Example 8, 3-(1-Benzofuran-2-yl)-6-{2-[(3R)-morpholin-3-yl]ethoxy}imidazo[1,2-b]pyridazine]
IC50 [2]: 6 nM
IC50 [1]: 20 nM

CC(C)NCCOc1ccc2ncc(-c3cc4ccccc4o3)n2n1 [Example 10, N-(2-{[3-(1-Benzofuran-2-yl)imidazo[1,2-b]pyridazin-6-yl]oxy}ethyl)propan-2-amine]
IC50 [2]: 8 nM
IC50 [1]: 23 nM

c1ccc2oc(-c3cnc4ccc(OC[C@@H]5CNCCO5)nn34)cc2c1 [Example 11, 3-(1-Benzofuran-2-yl)-6-[(2S)-morpholin-2-ylmethoxy]imidazo[1,2-b]pyridazine]
IC50 [2]: 12 nM
IC50 [1]: 24 nM

c1ccc2oc(-c3cnc4ccc(OCC5CCCCN5)nn34)cc2c1 (stereo not drawn) [Example 16, 3-(1-Benzofuran-2-yl)-6-(piperidin-2-ylmethoxy)imidazo[1,2-b]pyridazine]
IC50 [2]: 16 nM
IC50 [1]: 32 nM

c1ccc2oc(-c3cnc4ccc(OCCC5CNCCO5)nn34)cc2c1 (stereo not drawn) [Example 1, 3-(1-Benzofuran-2-yl)-6-[2-(morpholin-2-yl)ethoxy]imidazo[1,2-b]pyridazine]
IC50 [2]: 4 nM
IC50 [1]: 6 nM

COc1ccc2oc(-c3cnc4ccc(OC[C@H]5CNCCO5)nn34)cc2c1 [Example 5, 3-(5-Methoxy-1-benzofuran-2-yl)-6-[(2R)-morpholin-2-ylmethoxy]imidazo[1,2-b]pyridazine]
IC50 [1]: 18 nM

Fc1ccc2oc(-c3cnc4ccc(OC[C@H]5CNCCO5)nn34)cc2c1 [Example 34, 3-(5-Fluoro-1-benzofuran-2-yl)-6-[(2R)-morpholin-2-ylmethoxy]imidazo[1,2-b]-pyridazine]
IC50 [2]: 10 nM
IC50 [1]: 11 nM

c1ccc2oc(-c3cnc4ccc(OC5CCCNC5)nn34)cc2c1 (stereo not drawn) [Example 22, 3-(1-Benzofuran-2-yl)-6-(piperidin-3-yloxy)imidazo[1,2-b]pyridazine]
IC50 [2]: 25 nM
IC50 [1]: 53 nM

c1ccc2oc(-c3cnc4ccc(OCC[C@H]5COCCN5)nn34)cc2c1 [Example 13, 3-(1-Benzofuran-2-yl)-6-{2-[(3S)-morpholin-3-yl]ethoxy}imidazo[1,2-b]pyridazine]
IC50 [2]: 9 nM
IC50 [1]: 25 nM

CC(C)CNCC(Oc1ccc2ncc(-c3cc4ccccc4o3)n2n1)c1ccccc1 (stereo not drawn) [Example 28, N-(2-{[3-(1-Benzofuran-2-yl)imidazo[1,2-b]pyridazin-6-yl]oxy}-2-phenylethyl)-2-methylpropan-1-amine]
IC50 [2]: 59 nM
IC50 [1]: 114 nM
